From paper PMC8058707

B1: Yes-associated protein (YAP): GlcN (5 mM) (protein)
parent chain: MDPGQQPPPQPAPQGQGQPPSQPPQGQGPPSGPGQPAPAATQAAPQAPPAGHQIVHVRGDSETDLEALFNAVMNPKTANVPQTVPMRLRKLPDSFFKPPEPKSHSRQASTDAGTAGALTPQHVRAHSSPASLQLGAVSPGTLTPTGVVSGPAATPTAQHLRQSSFEIPDDVPLPAGWEMAKTSSGQRYFLNHIDQTTTWQDPRKAMLSQMNVTAPTSPPVQQNMMNSASGPLPDGWEQAMTQDGEIYYINHKNKTTSWLDPRLDPRFAMNQRISQSAPVKQPPPLAPQSPQGGVMGGSNSNQQQQMRLQQLQMEKERLRLKQQELLRQAMRNINPSTANSPKCQELALRSQLPTLEQDGGTQNPVSSPGMSQELRTMTTNSSDPFLNSGTYHSRDESTDSGLSMSSYSVPRTPDDFLNSVDEMDTGDTINQSTLPSQQNRFPDYLEAIPGTNVDLGTLEGDGMNIEGEELMPSLQEALSSDILNDMESVLAATKLDKESFLTWL
B2: Yes-associated protein (YAP): GlcNAc (5 mM) (protein)
parent chain: MDPGQQPPPQPAPQGQGQPPSQPPQGQGPPSGPGQPAPAATQAAPQAPPAGHQIVHVRGDSETDLEALFNAVMNPKTANVPQTVPMRLRKLPDSFFKPPEPKSHSRQASTDAGTAGALTPQHVRAHSSPASLQLGAVSPGTLTPTGVVSGPAATPTAQHLRQSSFEIPDDVPLPAGWEMAKTSSGQRYFLNHIDQTTTWQDPRKAMLSQMNVTAPTSPPVQQNMMNSASGPLPDGWEQAMTQDGEIYYINHKNKTTSWLDPRLDPRFAMNQRISQSAPVKQPPPLAPQSPQGGVMGGSNSNQQQQMRLQQLQMEKERLRLKQQELLRQAMRNINPSTANSPKCQELALRSQLPTLEQDGGTQNPVSSPGMSQELRTMTTNSSDPFLNSGTYHSRDESTDSGLSMSSYSVPRTPDDFLNSVDEMDTGDTINQSTLPSQQNRFPDYLEAIPGTNVDLGTLEGDGMNIEGEELMPSLQEALSSDILNDMESVLAATKLDKESFLTWL
B3: Yes-associated protein (YAP): GFPT1S205A expression (protein)
parent chain: MDPGQQPPPQPAPQGQGQPPSQPPQGQGPPSGPGQPAPAATQAAPQAPPAGHQIVHVRGDSETDLEALFNAVMNPKTANVPQTVPMRLRKLPDSFFKPPEPKSHSRQASTDAGTAGALTPQHVRAHSSPASLQLGAVSPGTLTPTGVVSGPAATPTAQHLRQSSFEIPDDVPLPAGWEMAKTSSGQRYFLNHIDQTTTWQDPRKAMLSQMNVTAPTSPPVQQNMMNSASGPLPDGWEQAMTQDGEIYYINHKNKTTSWLDPRLDPRFAMNQRISQSAPVKQPPPLAPQSPQGGVMGGSNSNQQQQMRLQQLQMEKERLRLKQQELLRQAMRNINPSTANSPKCQELALRSQLPTLEQDGGTQNPVSSPGMSQELRTMTTNSSDPFLNSGTYHSRDESTDSGLSMSSYSVPRTPDDFLNSVDEMDTGDTINQSTLPSQQNRFPDYLEAIPGTNVDLGTLEGDGMNIEGEELMPSLQEALSSDILNDMESVLAATKLDKESFLTWL
B4: Yes-associated protein (YAP): GFPT1 overexpression (protein)
parent chain: MDPGQQPPPQPAPQGQGQPPSQPPQGQGPPSGPGQPAPAATQAAPQAPPAGHQIVHVRGDSETDLEALFNAVMNPKTANVPQTVPMRLRKLPDSFFKPPEPKSHSRQASTDAGTAGALTPQHVRAHSSPASLQLGAVSPGTLTPTGVVSGPAATPTAQHLRQSSFEIPDDVPLPAGWEMAKTSSGQRYFLNHIDQTTTWQDPRKAMLSQMNVTAPTSPPVQQNMMNSASGPLPDGWEQAMTQDGEIYYINHKNKTTSWLDPRLDPRFAMNQRISQSAPVKQPPPLAPQSPQGGVMGGSNSNQQQQMRLQQLQMEKERLRLKQQELLRQAMRNINPSTANSPKCQELALRSQLPTLEQDGGTQNPVSSPGMSQELRTMTTNSSDPFLNSGTYHSRDESTDSGLSMSSYSVPRTPDDFLNSVDEMDTGDTINQSTLPSQQNRFPDYLEAIPGTNVDLGTLEGDGMNIEGEELMPSLQEALSSDILNDMESVLAATKLDKESFLTWL

What was measured:
[1] = immunoblot of total YAP after erastin 8 h; details: glycan gained; control: erastin alone, H1975 cells
[2] = anti-YAP IP, anti-Ub immunoblot; details: glycan gained; control: control H1975 cells

Row | Protein | expression_or_secretion [1] | other: ubiquitination [2]
1 | B1 | increases | –
2 | B2 | increases | –
3 | B3 | increases | –
4 | B4 | – | decreases
